Target: T1, recombinant human CD25 (human, UniProt P01589 22-213, limits assumed)
T1 construct: also called IL-2 receptor subunit a
T1 sequence (looked up): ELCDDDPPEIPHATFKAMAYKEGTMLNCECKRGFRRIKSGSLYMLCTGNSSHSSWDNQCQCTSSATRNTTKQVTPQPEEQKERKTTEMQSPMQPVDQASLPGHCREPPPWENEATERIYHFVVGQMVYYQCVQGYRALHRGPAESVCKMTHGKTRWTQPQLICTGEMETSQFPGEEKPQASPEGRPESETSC
Experiment: SPR, Biacore T200; human CD25 immobilized on CM5 chip
Procedure: The relative affinities of VP001, VP002, VP007 and VP008 for recombinant human CD3de (Delta epsilon fusion) and recombinant human CD25 were assessed by SPR on a Biacore T200 (GE Healthcare).

B1: VP007 (Basiliximab with V-IGG4-B) (antibody, human IgG4 S228P, kappa, F234A L235A, V domains shown)
VH: QVQLQQSGTVLARPGASVKMSCKASGYSFTRYWMHWIKQRPGQGLEWIGAIYPGNSDTSYNQKFEGKAKLTAVTSASTAYMELSSLTHEDSAVYYCSRDYGYYFDFWGQGTTLTVSS
VL: QIVSTQSPAIMSASPGEKVTMTCSASSSRSYMQWYQQKPGTSPKRWIYDTSKLASGVPARFSGSGSGTSYSLTISSMEAEDAATYYCHQRSSYTFGGGTKLEIKR
notes: 4 chain IgG format (chVIT-101), IgG4 with S228P, F234A, L235A, K322A, F405L, R409K; also called chimeric Basiliximab; chVIT-101
Kd: 0.8 nM
